Among the data in patent US20240383908A1, “SYNTHESIS AND APPLICATION OF PHOSPHATASE DEGRADER” (HINOVA PHARMACEUTICALS INC., priority 2021, published 2024) are DC50 values, retold here.

The chains behind the UniProt entries cited, without tags or fusion partners.
UniProt Q06124, whole entry: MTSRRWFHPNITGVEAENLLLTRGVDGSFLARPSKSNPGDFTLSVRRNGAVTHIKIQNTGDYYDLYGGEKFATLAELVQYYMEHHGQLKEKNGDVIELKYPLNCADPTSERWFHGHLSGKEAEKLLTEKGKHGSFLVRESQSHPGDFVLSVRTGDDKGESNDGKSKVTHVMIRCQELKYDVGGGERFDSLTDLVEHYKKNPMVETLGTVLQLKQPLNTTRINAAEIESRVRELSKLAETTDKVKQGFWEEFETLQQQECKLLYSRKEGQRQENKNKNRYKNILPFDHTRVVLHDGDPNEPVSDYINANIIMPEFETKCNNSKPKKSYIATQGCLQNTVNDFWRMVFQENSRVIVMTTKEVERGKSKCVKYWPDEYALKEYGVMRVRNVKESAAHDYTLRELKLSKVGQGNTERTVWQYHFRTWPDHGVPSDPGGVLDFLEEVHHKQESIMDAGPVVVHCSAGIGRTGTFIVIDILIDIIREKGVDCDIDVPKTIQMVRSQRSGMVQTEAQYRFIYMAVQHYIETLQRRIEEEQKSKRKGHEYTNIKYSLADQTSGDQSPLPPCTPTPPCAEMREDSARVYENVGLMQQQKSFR

Structures are written as SMILES.

The target in test [1] is T1, SHP2 protein (Homo sapiens, UniProt Q06124). As to the kind of experiment: Degradation activity on SHP2 protein in NCI-H358 cells (Western blot, DC50). As to conditions: read-out: Degradation activity for differenct cell lines NCI-H358 (DC50). The procedure:
(§1) (1) MV-411 cells were cultured in the cell culture medium, and then well-growing cells were selected and inoculated in a 12-well plate, with 1 mL/well and 1×10^6 cells/well. The plate was incubated overnight in a 5% CO2 cell incubator at 37° C.
(§2) (2) 10 mM storage solution of each drug was prepared using dimethylsulfoxide (DMSO). The stock solution was diluted gradually with DMSO before use, and then 1 μL of the compound solution was added to the cell culture well (to ensure that the DMSO concentration in the culture system was […]), so that the final drug concentration is 100 nM, 10 nM, 3 nM, 1 nM, 0.3 nM, and 0.1 nM. Two wells were set for each concentration. The plate was gently shaken and mixed. Additionally, negative control wells (containing an equal amount of DMSO) and positive control wells were included.
(§3) (3) After 24 hours of cultivation, the cells were lysed using RIPA cell lysate, and the proteins were extracted. The protein concentration was measured using a BCA assay kit. 5× concentrated protein buffer was loaded, heated at 100° C. for 5 min, and then the sample was stored at −20° C.
(§4) (4) For each well, 30 μg of protein was loaded to polyacrylamide gel for electrophoresis. […]
(§5) (6) The images were analyzed with Image J grayscale, and the degradation ratio of protein bands in the test group was calculated, based on the negative control group (DMSO) (100%). […]

The target in test [2] is T1, SHP2 protein. As to the kind of experiment: Degradation activity on SHP2 protein in MIA Paca-2 cells (Western blot, DC50). As to conditions: read-out: Degradation activity for differenct cell lines MIA Paca-2 (DC50). The procedure:
as §1, §2, §3, §4, §5
On the technique in general: A western blot detects proteins with antibodies after separation by electrophoresis.

As a reminder, the DC50 is the concentration at which degradation of the target reaches its halfway point. On to `CC1(N)CCN(c2cnc(Sc3cccc(NC(=O)c4ccc(N5CCC(N6CC=C(c7cnc(C(=O)NCc8ccc9c(c8)CN(C8CCC(=O)NC8=O)C9=O)c(F)c7)CC6)CC5)cc4)c3)cn2)CC1` (stereo not drawn), for which the half-maximal degradation concentration (DC50) in test [1] and in test [2] was less than 100 nM each time.

For `C[C@@H]1OCC2(CCN(c3cnc(Sc4cccc(NCc5ccc(N6CCN(c7ccc(C(=O)NCc8ccc9c(c8)C(=O)N(C8CCC(=O)NC8=O)C9)nn7)CC6)c(F)c5)c4)cn3)CC2)[C@@H]1N` (stereo partly drawn), the half-maximal degradation concentration (DC50) in test [2] is more than 1000 nM.
